From KR20140021799A (dated 2014)

Biological target: T1, CD2 항원 (Jurkat T 세포 / T 림프구 표면) (UniProt P06729 25-351, limits assumed)
T1 construct: whole, on cells; also called CD2-positive Jurkat T 세포
T1 sequence (looked up): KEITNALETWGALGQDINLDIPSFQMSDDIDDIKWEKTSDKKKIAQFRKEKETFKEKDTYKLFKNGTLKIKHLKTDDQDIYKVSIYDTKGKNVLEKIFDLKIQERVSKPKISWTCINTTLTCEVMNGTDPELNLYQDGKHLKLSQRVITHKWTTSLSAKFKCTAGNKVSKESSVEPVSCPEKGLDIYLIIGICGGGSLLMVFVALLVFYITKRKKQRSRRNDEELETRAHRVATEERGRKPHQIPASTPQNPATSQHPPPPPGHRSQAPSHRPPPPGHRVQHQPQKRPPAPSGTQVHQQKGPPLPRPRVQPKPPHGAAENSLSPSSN
Assay: dual-binding assay: HER2 antigen coated, COS-7 medium, then Jurkat T cells, calcein AM fluorescence

B1: anti-HER2 scFv-LFA3 (포유류 발현 시스템, COS-7 세포에서 발현) (other)
chain: FSQQIYGVVYGNVTFHVPSNVPLKEVLWKKQKDKVAELENSEFRAFSSFKNRVYLDTVSGSLTIYNLTSSDEDEYEMESPNITDTMKFFLYVLESGGGGSGGSGS[about 120 residues not listed]GGGGSGGGGSGGGSGDIQMTQSPSSLSASVGDRVTITCRASQDVNTAVAWYQQKPGKAPKLLIYSASFLYSGVPSRFSGSRSGTDFTLTISSLQPEDFATYYCQQHYTTPPTFGQGTKVEIKENLYFQGHHHHHH
notes: LFA3 is residues 29-123; Tested as unpurified, unquantified COS-7 culture medium (10x concentrate, neat, dilutions); Glycosylated; also called pCIneo-anti-HER2 scFv-LFA3 product
binding result: binds
